# Binding of CDR-mutated scFvs to a peptide of the spike HR2 region

Reference: Li et al. 2023, doi:10.1038/s41467-023-39022-2. File: FLAb, binding data.

All variants were tested on one target, the spike HR2 peptide PDVDLGDISGINAS (SARS-CoV-2).

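The starting antibody came from a phage panning campaign against this peptide. These sequences belong to a second round, designed from the earlier measurements on random variants of the parent. Several design methods are mixed in this list. In AlphaSeq, yeast of one mating type display the scFv and yeast of the other type display the target. After mating in shaken culture at 30 °C for 16 h, diploids were selected and their barcode pairs sequenced. The ratio of observed to expected reads was calibrated, replicate by replicate, on BCL2-family standards whose Kd was known from biolayer interferometry. There are six technical replicates.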

Each scFv is VH, a (GGGGS)3 linker, VL, as in the parent Ab-14, and differs from it in the CDRs of the heavy chain only.
VH: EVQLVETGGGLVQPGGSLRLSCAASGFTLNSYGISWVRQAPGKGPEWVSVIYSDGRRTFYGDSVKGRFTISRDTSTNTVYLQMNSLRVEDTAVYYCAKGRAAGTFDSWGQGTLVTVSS
VL: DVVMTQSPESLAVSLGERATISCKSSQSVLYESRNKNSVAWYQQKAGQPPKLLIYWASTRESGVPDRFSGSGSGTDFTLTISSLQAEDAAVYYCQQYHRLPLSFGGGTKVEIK

The parent's heavy chain CDRs are GFTLNSYGIS, VIYSDGRRTFYGDSVK, GRAAGTFDS; each variant's own CDRs replace them letter for letter.
Variants here have more than six changes.
Each Kd is an estimate from the mating assay, the geometric mean of the replicates in which the pair was seen; lower is stronger.
"nd" marks a missing value. The strain was present, yet no cells mated with the target were sequenced in any replicate, which points to weak or no binding.
Order: sorted from the lowest average up, undetected variants last.
The authors' rule: three or more of the six replicates give a measured affinity, fewer mean a poor binder.

The variant GFDLNEYGIS / VIYADGRRTFYQDSFK / GENAGTFDQ showed 27 pM (6 of 6 replicates; controls 0 of 18).
The variant GFDLEDYGIS / VIYADGRRTFYADSVK / GNVAGTFDL showed 82 pM (6 of 6 replicates; controls 0 of 18).
The variant GFDLEEYGIS / VIYADGRRTFYSDSVK / GEIAGTFDS showed 200 pM (6 of 6 replicates; controls 0 of 18).
The variant GFDLNEYGIS / VIYADGSRTFYSDSVK / GNQAGTFDV showed 210 pM (6 of 6 replicates; controls 0 of 18).
The variant GFDLNEYGIS / VIYADGVRTAYADNVK / GNVAGTFDL showed 260 pM (6 of 6 replicates; controls 1 of 18).
The variant GFNLNEYGIS / VIYADGRRTFYTDSVK / GEFAGTFDQ showed 310 pM (6 of 6 replicates; controls 0 of 18).
The variant GFDLNEYGIS / VIYADGQRTAYADNVK / GNVAGTFDI showed 340 pM (6 of 6 replicates; controls 0 of 18).
The variant GFQLDEYGIS / VIYADGRRTFYQDSVK / GNVAGTFDS showed 370 pM (6 of 6 replicates; controls 0 of 18).
The variant GFDLNEYGIS / VIYADGQRTAYIDSVK / GQNAGTFDV showed 380 pM (6 of 6 replicates; controls 0 of 18).
The variant GFDLEEYGIS / VIYADGRRTFYSDSVK / GETAGTFDS showed 400 pM (6 of 6 replicates; controls 0 of 18).
The variant GFDLNEYGIS / VIYADGRRTAYSDSVK / GEQAGTFDV showed 430 pM (6 of 6 replicates; controls 0 of 18).
The variant GFDLNEYGIS / VIYADGRRTAYADSVK / GEVAGTFDM showed 440 pM (6 of 6 replicates; controls 1 of 18).
The variant GFDLNEYGIS / VIYADGRRTAYSDSVK / GNVAGTFDI showed 440 pM (6 of 6 replicates; controls 0 of 18).
The variant GFDLESYGIS / VIYADGRRTFYSDSVK / GGNAGTFDI showed 450 pM (6 of 6 replicates; controls 0 of 18).
The variant GFDLNEYGIS / VIYADGKRTYYADSVK / GNQAGTFDV showed 480 pM (1 of 6 replicates; controls 0 of 18).
The variant GFDLNEYGIS / VIYADGMRTAYIDSVK / GEQAGTFDL showed 500 pM (6 of 6 replicates; controls 1 of 18).
The variant GFDLNEYGIS / VIYADGKRTFYTDSVK / GEVAGTFDS showed 500 pM (4 of 6 replicates; controls 0 of 18).
The variant GFDLNEYGIS / VIYADGRRTAYADSVK / GVNAGTFDV showed 600 pM (6 of 6 replicates; controls 0 of 18).
The variant GFDLNEYGIS / VIYADGLRTSYKDSVK / GQLAGTFDQ showed 720 pM (6 of 6 replicates; controls 0 of 18).
The variant GFDLNEYGIS / VIYADGMRKAYADDVK / GETAGTFDV showed 810 pM (6 of 6 replicates; controls 0 of 18).
The variant GFDINEYGIS / VIYADGKRTAYADSVK / GENAGTFDV showed 840 pM (6 of 6 replicates; controls 0 of 18).
The variant GFDLNEYGIS / VIYADGVRTAYSDSVK / GNNAGTFDQ showed 840 pM (6 of 6 replicates; controls 0 of 18).
The variant GFDLNEYGIS / VIYADGMRTAYTDSVK / GQVAGTFDV showed 940 pM (6 of 6 replicates; controls 0 of 18).
The variant GFDLEDYGIS / VIYADGMRTAYSDSVK / GEVAGTFDQ showed 960 pM (6 of 6 replicates; controls 0 of 18).
The variant GFDLDEYGIS / VIYADGMRTFYADSVK / GNVAGTFLS showed 1.2 nM (6 of 6 replicates; controls 0 of 18).
The variant GFDLNEYGIS / VIYADGMRTAYSDDVK / GETAGTFDQ showed 1.4 nM (6 of 6 replicates; controls 0 of 18).
The variant GFDLDEYGIS / VIYADGQRTVYADSVK / GNVAGTFDV showed 2.4 nM (6 of 6 replicates; controls 0 of 18).
The variant GFDLNEYGIS / VIYADGRRTFYSDSVK / GENGGTFDI showed 3.7 nM (6 of 6 replicates; controls 0 of 18).
The variant GFDLNEYGIS / VIYADGRRTFYIDSVK / GEVAGTFIM showed 6.5 nM (5 of 6 replicates; controls 0 of 18).
The variant GDGLEEYGIS / VIYADGMRESYVDDVK / GQKGGTFNL showed 62 nM (4 of 6 replicates; controls 0 of 18).
The variant GFKLEEYGIS / VIYADGQRVAYQDKVK / GQHAGMFDQ showed 88 nM (6 of 6 replicates; controls 0 of 18).
The variant GFDLQEQGIS / VIYADGKRTAYAQNVK / GYIVGDQFD showed 360 nM (1 of 6 replicates; controls 2 of 18).
The variant GEDLDSYGIS / VIYADGLRTVYSDNFK / GNLGGQFDM showed nd (0 of 6 replicates; controls 0 of 18).
The variant GFNLLEYGIS / VIYADGMRQAYVEDVK / GTNGVSVFF showed nd (0 of 6 replicates; controls 0 of 18).
The variant GETINSYGIY / VIYSDGKRTAYGDSVK / CRAAGTFVS showed nd (0 of 6 replicates; controls 0 of 18).
The variant GFDLAEYGIS / VIYADGMRVAYNQNVK / GTGGGSFNF showed nd (0 of 6 replicates; controls 0 of 18).
The variant GFDLEKMGIS / VIYADGSRSAYAQDVK / GGHAGGFHV showed nd (0 of 6 replicates; controls 0 of 18).
The variant GFDFQEYGIS / VIYADGLRTAYANSVK / GGSNALTTV showed nd (0 of 6 replicates; controls 0 of 18).
The variant GDFLDEYGIS / VIYADGMRSSYANKVK / GHNFGLKMV showed nd (0 of 6 replicates; controls 0 of 18).
The variant GMDLEEMGIS / VIYADGLRSAYVDSVK / GGVGDYDFV showed nd (0 of 6 replicates; controls 0 of 18).

Again, the first 4 entries without any signal:

Variant GEDLDSYGIS / VIYADGLRTVYSDNFK / GNLGGQFDM showed nd (0 of 6 replicates; controls 0 of 18).
Variant GFNLLEYGIS / VIYADGMRQAYVEDVK / GTNGVSVFF showed nd (0 of 6 replicates; controls 0 of 18).
Variant GETINSYGIY / VIYSDGKRTAYGDSVK / CRAAGTFVS showed nd (0 of 6 replicates; controls 0 of 18).
Variant GFDLAEYGIS / VIYADGMRVAYNQNVK / GTGGGSFNF showed nd (0 of 6 replicates; controls 0 of 18).

Nonspecific signal, from three strains lacking the peptide, appeared in 1% of pairings of all heavy chain designs, centred on 120 nM (5% of these signals below 7.0 nM); values are not corrected for it. The control count says in how many pairings with the empty strains this scFv gave a signal.
Values of this round are not directly comparable with the first-round values of the same sequences.